Experimental data from ChEMBL document CHEMBL3421591, “Improved Synthesis of Biotinol-5'-AMP: Implications for Antibacterial Discovery” (ACS Med Chem Lett, 2015).

The chains behind the UniProt entries cited, without tags or fusion partners.
UniProt P06709, whole entry: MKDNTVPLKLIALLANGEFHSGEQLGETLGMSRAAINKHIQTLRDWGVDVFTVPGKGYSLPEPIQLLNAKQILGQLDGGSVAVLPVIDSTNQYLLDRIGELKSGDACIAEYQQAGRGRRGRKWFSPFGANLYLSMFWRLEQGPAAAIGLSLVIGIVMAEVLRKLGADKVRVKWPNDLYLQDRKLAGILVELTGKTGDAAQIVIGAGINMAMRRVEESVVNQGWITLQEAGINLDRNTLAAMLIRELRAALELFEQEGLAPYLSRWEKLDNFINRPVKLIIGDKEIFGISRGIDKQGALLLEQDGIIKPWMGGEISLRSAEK

How the values were obtained:
Biotin--protein ligase = biological target: T1, Biotin--protein ligase (Homo sapiens, UniProt P50747); experiment: Inhibition of human recombinant BPL using 3H-biotin as substrate after 10 mins by liquid scintillation counting analysis; conditions: read-out: Ki(app)
T1 sequence (P50747 whole entry): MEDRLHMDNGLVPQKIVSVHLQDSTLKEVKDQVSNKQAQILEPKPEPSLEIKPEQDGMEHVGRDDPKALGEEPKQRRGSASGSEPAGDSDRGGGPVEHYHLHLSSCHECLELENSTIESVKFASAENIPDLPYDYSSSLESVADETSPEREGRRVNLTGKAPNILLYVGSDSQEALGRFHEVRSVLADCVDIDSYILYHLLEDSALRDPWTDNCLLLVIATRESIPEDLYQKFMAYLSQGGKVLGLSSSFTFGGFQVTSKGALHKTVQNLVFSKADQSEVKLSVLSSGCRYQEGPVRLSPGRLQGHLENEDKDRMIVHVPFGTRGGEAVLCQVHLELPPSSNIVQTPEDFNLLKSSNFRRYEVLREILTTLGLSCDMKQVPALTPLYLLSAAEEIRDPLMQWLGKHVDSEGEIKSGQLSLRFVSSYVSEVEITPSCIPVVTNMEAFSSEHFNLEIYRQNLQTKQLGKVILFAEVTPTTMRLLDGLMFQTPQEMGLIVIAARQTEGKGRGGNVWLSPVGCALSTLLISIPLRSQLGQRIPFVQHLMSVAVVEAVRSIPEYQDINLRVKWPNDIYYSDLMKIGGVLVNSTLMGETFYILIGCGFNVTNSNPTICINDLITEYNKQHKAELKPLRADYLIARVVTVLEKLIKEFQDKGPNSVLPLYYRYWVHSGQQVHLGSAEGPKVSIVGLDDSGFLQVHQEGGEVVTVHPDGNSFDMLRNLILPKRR

[1] = biological target: Bifunctional ligase/repressor BirA (Escherichia coli (strain K12), UniProt P06709); experiment: Inhibition of Escherichia coli recombinant BPL using 3H-biotin as substrate after 10 mins by liquid scintillation counting analysis; conditions: read-out: Ki(app)

`Nc1ncnc2c1ncn2[C@@H]1O[C@H](COP(=O)(O)OCCCCC[C@@H]2SC[C@@H]3NC(=O)N[C@@H]32)[C@@H](O)[C@H]1O` showed a Ki (Biotin--protein ligase) of 182 nM and a Ki [1] of 87 nM.
